Experimental data as given in patent publication US20200010482A1, “INHIBITORS OF BETA SECRETASE” (Janssen Pharmaceutica NV, priority 2017, published 2020).

Amino acid sequences for entries named in this document (tags omitted). Residues count along the entry.
UniProt Q9Y5Z0, 63-518 limits assumed: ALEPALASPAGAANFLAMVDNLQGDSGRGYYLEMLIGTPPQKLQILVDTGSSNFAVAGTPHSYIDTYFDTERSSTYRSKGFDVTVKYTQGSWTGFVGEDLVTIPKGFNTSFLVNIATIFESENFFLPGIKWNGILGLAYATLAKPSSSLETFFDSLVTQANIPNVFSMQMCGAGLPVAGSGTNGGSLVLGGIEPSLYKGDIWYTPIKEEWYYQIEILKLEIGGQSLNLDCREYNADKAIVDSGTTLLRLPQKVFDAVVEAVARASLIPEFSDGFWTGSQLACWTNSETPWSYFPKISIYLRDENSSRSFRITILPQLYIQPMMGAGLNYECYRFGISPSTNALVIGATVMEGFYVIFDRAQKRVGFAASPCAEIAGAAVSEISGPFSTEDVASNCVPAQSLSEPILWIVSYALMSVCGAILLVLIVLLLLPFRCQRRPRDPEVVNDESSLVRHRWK

Assays:
BACE2 = BACE2 (Homo sapiens, UniProt Q9Y5Z0); experiment: BACE2 biochemical FRET based assay; conditions: recombinant BACE2 0.4 μg/ml, 10 μM substrate, 450 min, pH 5.0
Source text: This assay is a Fluorescence Resonance Energy Transfer Assay (FRET) based assay. The substrate for this assay contains the ‘Swedish’ Lys-Met/Asn-Leu mutation of the amyloid precursor protein (APP) beta-secretase cleavage site. This substrate also contains two fluorophores: (7-methoxycoumarin-4-yl) acetic acid (Mca) is a fluorescent donor with excitation wavelength at 320 nm and emission at 405 nm and 2,4-Dinitrophenyl (Dnp) is a proprietary quencher acceptor. […] Upon cleavage by the beta-secretase, the fluorophore Mca is separated from the quenching group Dnp, restoring the full fluorescence yield of the donor. The increase in fluorescence is linearly related to the rate of proteolysis.
Briefly in a 384-well format recombinant BACE2 protein in a final concentration of 0.4 μg/ml is incubated for 450 minutes at room temperature with 10 μM substrate in incubation buffer (50 mM Citrate buffer pH 5.0, 0.05% PEG, no DMSO) in the absence or presence of compound. Next the amount of proteolysis is directly measured by fluorescence measurement at T=0 and T=450 (excitation at 320 nm and emission at 405 nm). Results are expressed in RFU (Relative Fluorescence Units), as difference between T450 and TO.
(§1) A best-fit curve is fitted by a minimum sum of squares method to the plot of % Controlmin versus compound concentration. From this an IC50 value (inhibitory concentration causing 50% inhibition of activity) can be obtained. • LC=Median of the low control values=Low control: Reaction without enzyme • HC=Median of the High control values=High Control: Reaction with enzyme
(§2) % Effect=100−[(sample−LC)/(HC−LC)*100]
(§3) % Control=(sample/HC)*100
(§4) % Controlmin=(sample−LC)/(HC−LC)*100

[1] = system: Abeta total produced and secreted by SKNBE2 cells expressing hAPP695; experiment: Cellular αLisa assay in SKNBE2 cells, Abeta total; conditions: SKNBE2 cells expressing hAPP695, 18 hours incubation
Description: In two αLisa assays the levels of Abeta total and Abeta 1-42 produced and secreted into the medium of human neuroblastoma SKNBE2 cells are quantified. The assay is based on the human neuroblastoma SKNBE2 expressing the wild type Amyloid Precursor Protein (hAPP695). The compounds are diluted and added to these cells, incubated for 18 hours and then measurements of Abeta 1-42 and Abeta total are taken. Abeta total and Abeta 1-42 are measured by sandwich αLisa. αLisa is a sandwich assay using biotinylated antibody AbN/25 attached to streptavidin coated beads and antibody Ab4G8 or cAb42/26 conjugated acceptor beads for the detection of Abeta total and Abeta 1-42 respectively. In the presence of Abeta total or Abeta 1-42, the beads come into close proximity. The excitation of the donor beads provokes the release of singlet oxygen molecules that trigger a cascade of energy transfer in the acceptor beads, resulting in light emission. Light emission is measured after 1 hour incubation (excitation at […] and emission at 615 nm).
as §1, with “cells preincubated” for “Reaction”, “compound, without biotinylated Ab in the αLisa” for “enzyme”, “cells preincubated without compound” for “Reaction with enzyme”
as §2, §3, §4

BIOCHEMICAL FRET BASED ASSAY pIC50 (BACE2) | BIOCHEMICAL FRET BASED ASSAY pIC50 (BACE2; tested form: formate) | Structure (SMILES) | also measured
5.76 |  | COc1ncc(-c2c(C)noc2C)c2c1C[C@]1(c3ccc(F)cc3F)N=C(N)SC[C@@H]1C2 | 
 | 5.2 | COc1ncc(-c2c(C)noc2C)c2c1C[C@]1(c3cc(OCC4CCOCC4)ccc3F)N=C(N)SC[C@@H]1C2 | 
 | 6.65 | COc1ncc(-c2c(C)noc2C)c2c1C[C@]1(c3cc(OCc4ncccn4)ccc3F)N=C(N)SC[C@@H]1C2 | 
 | 5.69 | COc1ncc(-c2c(C)noc2C)c2c1C[C@]1(c3cc(OCC4CC4)ccc3F)N=C(N)SC[C@@H]1C2 | 

Further lines, the molecule ahead of its results:

Structure (SMILES) | BIOCHEMICAL FRET BASED ASSAY pIC50 (BACE2) | BIOCHEMICAL FRET BASED ASSAY pIC50 (BACE2; tested form: formate) | also measured
COc1ccc(F)c(-c2cnc(OC)c3c2C[C@H]2CSC(N)=N[C@@]2(c2ccc(F)cc2F)C3)c1 |  |  | BIOCHEMICAL FRET BASED ASSAY pIC50 (BACE2; tested form: free base): 7.45
COc1ccccc1-c1cnc(OC)c2c1C[C@H]1CSC(N)=N[C@@]1(c1ccc(F)cc1F)C2 | 6.3 |  | 
COc1ncc(-c2ccc(F)cc2C)c2c1C[C@]1(c3cc(OCC4CCOCC4)ccc3F)N=C(N)SC[C@@H]1C2 |  | 6.48 | 
COc1ncc(-c2cc(C)nc3c2CCCC3)c2c1C[C@]1(c3ccc(F)cc3F)N=C(N)SC[C@@H]1C2 | <5 |  | CELLULAR αLISA ASSAY IN SKNBE2 CELLS ABETA TOTAL pIC50 [1]: 7.37
